In one test the target is human TDO (Homo sapiens (Human), UniProt P48775). Briefly: TDO coupled biochemical assay. The source says: This coupled enzyme system allowed conversion of N-formylkynurenine produced by TDO or IDO activity to kynurenine which was then quantified by fluorescence following addition of Erhlich's Reagent.
The subject of test [1] is A172 human glioblastoma cells. Briefly: A172 kynurenine cell based assay. The note with it: A 172, 500 μM L-Trp, 48 h, absorbance at 490 nm, read-out: A172 Kynurenine cell based assay pIC50 (converted).
The subject of test [2] is SK-OV-3 ovary adenocarcinoma cells. Nature of the test: SKOV3 kynurenine cell based assay. The note with it: Homo sapiens; SK-OV-3 cells, IFNγ 500 ng/ml, 500 μM L-Trp, 48 h, absorbance at 490 nm; read-out: SKOV3 Kynurenine cell based assay pIC50 (converted).

Chains of the proteins cited; added tags and fusions are not shown. Lines headed by an entry give the natural chain unless they say otherwise; changes in a name come on top.
UniProt P48775: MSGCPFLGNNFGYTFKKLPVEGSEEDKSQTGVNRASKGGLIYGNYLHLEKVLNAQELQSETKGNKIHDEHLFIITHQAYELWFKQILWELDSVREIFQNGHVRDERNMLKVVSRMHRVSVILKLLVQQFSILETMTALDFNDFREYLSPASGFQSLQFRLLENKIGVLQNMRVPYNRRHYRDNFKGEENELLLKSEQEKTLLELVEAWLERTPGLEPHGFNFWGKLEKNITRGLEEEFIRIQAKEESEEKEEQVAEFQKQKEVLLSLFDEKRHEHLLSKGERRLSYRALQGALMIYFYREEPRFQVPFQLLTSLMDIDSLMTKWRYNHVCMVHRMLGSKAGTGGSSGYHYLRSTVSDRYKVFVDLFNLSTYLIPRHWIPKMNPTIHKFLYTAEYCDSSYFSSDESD

Each structure is given as a SMILES string. Read-outs that look alike come from different tables or passages of the source.

With `Fc1ccc2c(/C=C/c3cccnc3)c[nH]c2c1` [Compound 680C91], the IC50 at human TDO was 10 µM. For the compound `Nc1nonc1/C(=N\O)Nc1cc(F)cc(Cl)c1` [Incyte 1], the IC50 at human TDO (coupled with kynurenine formamidase, 330 μM L-tryptophan, fluorescence 475 nm/530 nm, read-out: hTDO biochemical assay pIC50 (converted)) is 2.51 µM. In the case of `OC(CC1c2ccccc2-c2cncn21)C1CCCCC1` (stereo not shown) [NewLink 1], the results for the IC50 in test [1] and in test [2] were 12.6 µM and 3.16 µM, respectively.
